Bioassay records: PubChem, National Center for Advancing Translational Sciences (NCATS)
In the library only some 0.78% were active in any assay of this set; here they are far more common.
miR-21 reporter: miR-21 reporter, rising signal; 340,000 tested, under 10 active; Potency, µM (highest dose often 38.3 µM), for the others: top-dose reporter change, positive = more light; HeLa miR-21 FLuc reporter, luciferase, 48 h; active = well fitted rising curve with a large enough effect; inconclusive = small, poorly fitted or top-dose-only effect; inactive = no such curve, though single readings can be large or run the other way;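 further: % of control where 0% means no effect; miR-21 action dims this reporter so a rising signal means less miR-21 action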
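Luminescence from a firefly luciferase reporter carrying a miR-21 binding site downstream, stably expressed under a CMV promoter in HeLa cells that make miR-21 endogenously, reports miRNA modulation after 48 h compound exposure up to approximately 40uM final.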
IL-2 act: activators of IL-2. IL-2 activation reporter assay, cell-based qHTS; stimulated with anti-CD3/CD4/CD28 beads; in transgenic mouse T cells. activation, % (series mostly up to about 46 µM). 360,000 compounds, 0.065% hits. AID 652025; in the data active means activation above about 50%; inconclusive means mostly about 30% to 49%; further: 0% is about no effect
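Screening format: compound pinned onto unstimulated transgenic mouse T cells, 60 min incubation, then anti-CD3/anti-CD4/anti-CD28 bead stimulation for 18 hours at 37 degrees C, followed by EGFP and DsRed detection.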
TCR act: activators of T cell receptors; primary human leukocytes, anti-CD3, IL-2 HTRF, 48 h; Potency, µM (top dose mostly 9.22 µM), for inactives: at the highest dose activation of IL-2 secretion, actives largely listed as activators; 330,000 tested, under 10 active; AID 504894; further: % of control where 0% means no effect
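IL-2 release read by HTRF sandwich (Eu cryptate donor, d2 acceptor, 665 nm emission) after 48 hr exposure of primary human leukocytes to compound together with anti-CD3 beads in the absence of co-stimulatory signals.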
PINK1 expr mod: changes PINK1 expression | PINK1 immunofluorescence, high-content cytometry, 24 h | Potency, µM (highest dose often 76.6 µM), for inactives: at the highest dose activation (PINK1 increase), usual class: activators | 410,000 compounds, 0.2% hits | AID 624263; active means well fitted activation curve with a large enough effect; inconclusive means small, poorly fitted or top-dose-only effect; cell line not stated here; further: potency means the concentration at half of the fitted maximal effect; % of control where 0% means no effect; nearly all actives have a fitted effect of over 65% in size
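Stable cell line, 250 cells/well, 12 h attachment; compounds pinned at 5 concentrations, 24 h; CCCP control. Fixed with nuclear dye, primary antibodies 12 h at 10 degrees C, secondary plus cell stain; laser-scanning cytometer read.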
RXFP1 agonist: agonists of human relaxin receptor RXFP1; HEK293T-RXFP1 cAMP TR-FRET, 30 min; response scale: percent of porcine relaxin response, buffer zero; Potency, µM (series often up to 57.5 µM), for inactives: at the top dose activation, usual class: activators; 370,000 compounds, 0.3% hits; AID 2676; further: potency means the concentration at half of the fitted maximal effect; on the % scale 0 is the no-effect control and ±100 the full control effect; nearly all actives have a fitted effect of over 60% in size
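cAMP rise read by TR-FRET after 30 min, 37C compound exposure (up to 58 uM) in RXFP1-transfected HEK293 cells with Ro 20174 present. EC50 from Hill-equation fits, with 29 nM porcine relaxin as 100% and buffer as basal.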
RXFP1 antag: RXFP1 (human) relaxin receptor antagonism; Q9HBX9; HEK293-RXFP1, relaxin-stimulated cAMP HTRF, 30 min; active compounds read low; activity change, negative = inhibition, % at 57.5 µM; 350,000 compounds, 0.59% hits; AID 1259400;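 active means activity change of -60% or lower, but not beyond a set lower limit; inconclusive means change between -60% and -40%, or beyond the set limit; inactive means change above -40%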; further: on the % scale 0 is the no-effect control and ±100 the full control effect
Numbers without * were called inactive; [ ] = remark or other dose. Unless noted, the call rests on the fitted dose curve; in most records, active means well fitted curve in the direction sought with a large enough effect; inconclusive means small, poorly fitted or top-dose-only effect, or another doubt; inactive means no such curve, though single readings can be large; an effect the other way counts as inactive or inconclusive.

What do the screens show for `Cc1ccc(N=C2NC(=O)/C(=C/C=C/c3ccco3)S2)cc1`?
miR-21 reporter: -16.6%; IL-2 act: -3.5; TCR act: 2.2%[46.1 µM]; PINK1 expr mod: 11.7%; RXFP1 agonist: 2.3%; RXFP1 antag: -67.2*

Results for COc1ccc(N=C2NC(=O)/C(=C/C=C/c3ccccc3)S2)cc1 ?
miR-21 reporter: -6.4%; IL-2 act: 1.4; TCR act: -2.8%; PINK1 expr mod: 20.7%; RXFP1 agonist: -4.2%; RXFP1 antag: -7.1

Results for COc1ccc(N=C2NC(=O)/C(=C/c3ccco3)S2)cc1 ?
miR-21 reporter: -17.2%; IL-2 act: 1.5; TCR act: 3.6%; PINK1 expr mod: inconclusive; RXFP1 agonist: -1.1%; RXFP1 antag: -9.9

Results for Cc1ccc2c(c1)CN(CCNC(=O)c1n[nH]c3c1CCCC3)CC(C)O2 (stereo not given) ?
PINK1 expr mod: -0.7%

Results for CCCCN(CCO)c1ncnc2sc(-c3ccccc3)cc12 ?
miR-21 reporter: -19.9%; IL-2 act: -1.1; TCR act: -1.8%; PINK1 expr mod: -0.7%; RXFP1 agonist: 7.8%; RXFP1 antag: -65.5*

How did CC1CCCCN1CCCOC(=O)c1ccc(OC2CCCCC2)cc1 (stereo not given) do in these assays?
RXFP1 antag: -16.9

What do the screens show for `N#Cc1c(C(F)(F)F)cc(-c2ccccc2)nc1SCC(=O)Nc1sc2c(c1C#N)CCC2`?
miR-21 reporter: 0.3%; IL-2 act: 1.0; TCR act: 4.7%; PINK1 expr mod: 12.6µM*; RXFP1 agonist: 0.8%; RXFP1 antag: 5.0

Results for N#Cc1ccc(-c2cccnc2)nc1SCC(=O)Nc1sc2c(c1C#N)CCC2 ?
miR-21 reporter: -15.7%; IL-2 act: -2.2; TCR act: -2.8%; PINK1 expr mod: inconclusive; RXFP1 agonist: 0.5%; RXFP1 antag: 20.1

Results for COc1ccc2cc(CNCc3nonc3C)c(N3CCCC(CO)C3)nc2c1 (stereo not given) ?
PINK1 expr mod: 2.4%

How did COc1ccc2c(c1)-c1nc(-n3ncc(C(=O)NC[C@@H]4CCCN5CCCC[C@H]45)c3C)ncc1CC2 do in these assays?
PINK1 expr mod: -0.3%

How did COc1ccc(S(=O)(=O)Nc2cc3c(cc2NCc2ccccc2)n(C)c(=O)n3C)cc1 do in these assays?
miR-21 reporter: -49.6%; PINK1 expr mod: 3.8%; RXFP1 agonist: 28.2µM*; RXFP1 antag: 4.1

Results for CCC(CN)=C(c1ccccc1)c1ccccc1 ?
RXFP1 antag: -16.7

Results for CN(C(=O)c1cnn(-c2nccc(-c3ccccc3C(F)(F)F)n2)c1C1CC1)C1CCOC1 (stereo not given) ?
PINK1 expr mod: 1.3%

How did CCCC(=O)OCOC(=O)C1=C(C)NC(C)=C(C(=O)OC)C1c1cccc(Cl)c1Cl (stereo not given) do in these assays?
RXFP1 antag: 4.4

Results for O=C(COC(=O)C1CCN(S(=O)(=O)c2ccc(Cl)c(C(F)(F)F)c2)CC1)NCc1ccco1 ?
IL-2 act: -4.0; TCR act: -15.0%; PINK1 expr mod: 4.2%; RXFP1 agonist: -0.4%; RXFP1 antag: -16.3

Copied from above, 4 compounds:
Results for CCC(CN)=C(c1ccccc1)c1ccccc1 ?
RXFP1 antag: -16.7

Results for CN(C(=O)c1cnn(-c2nccc(-c3ccccc3C(F)(F)F)n2)c1C1CC1)C1CCOC1 (stereo not given) ?
PINK1 expr mod: 1.3%

How did CCCC(=O)OCOC(=O)C1=C(C)NC(C)=C(C(=O)OC)C1c1cccc(Cl)c1Cl (stereo not given) do in these assays?
RXFP1 antag: 4.4

Results for O=C(COC(=O)C1CCN(S(=O)(=O)c2ccc(Cl)c(C(F)(F)F)c2)CC1)NCc1ccco1 ?
IL-2 act: -4.0; TCR act: -15.0%; PINK1 expr mod: 4.2%; RXFP1 agonist: -0.4%; RXFP1 antag: -16.3

Carrying on.
What do the screens show for `CC1CCCCN1C(=O)COC(=O)C1CCN(S(=O)(=O)c2ccc(Cl)c(C(F)(F)F)c2)CC1` (stereo not given)?
IL-2 act: -0.4; TCR act: 2.8%; PINK1 expr mod: 11.0%; RXFP1 agonist: 0.6%; RXFP1 antag: -65.0*

Results for COc1ccc(OCC(=O)NC(=S)Nc2ccc3c4c(cccc24)CC3)cc1 ?
miR-21 reporter: -3.3%; IL-2 act: -1.1; TCR act: -6.6%; PINK1 expr mod: 2.7%; RXFP1 agonist: 20µM*; RXFP1 antag: 12.8

Results for Cc1ccccc1OCC(=O)NC(=S)Nc1ccc2c3c(cccc13)CC2 ?
miR-21 reporter: 0.7%; IL-2 act: 1.2; TCR act: 2.2%; PINK1 expr mod: 1.9%; RXFP1 agonist: 8.5%; RXFP1 antag: 3.4

What do the screens show for `COc1cccc(Nc2ncc3nc(-c4cn(C)c5ccccc45)c(=O)n(C[C@H]4CCCO4)c3n2)c1`?
PINK1 expr mod: 2.51µM*

What do the screens show for `O=C(CCCn1c(=S)[nH]c2cc3c(cc2c1=O)OCO3)NCc1ccccc1Cl`?
miR-21 reporter: -3.2%; IL-2 act: -0.2; TCR act: 2.4%; PINK1 expr mod: 2.8%; RXFP1 agonist: inconclusive; RXFP1 antag: -107.5*

What do the screens show for `O=C(CCCCCn1c(=S)[nH]c2ccccc2c1=O)NCc1ccc2c(c1)OCO2`?
miR-21 reporter: -8.2%; IL-2 act: -1.3; TCR act: -3.4%; PINK1 expr mod: 9.7%; RXFP1 agonist: -3.7%; RXFP1 antag: -62.1*

Results for O=c1c2ccccc2[nH]c(=S)n1Cc1ccc2c(c1)OCO2 ?
miR-21 reporter: 3.1%; IL-2 act: 0.0; TCR act: -0.6%; PINK1 expr mod: 10.8%; RXFP1 agonist: inconclusive; RXFP1 antag: -15.9

Results for COc1cccc(CNC(=O)CCCn2c(=S)[nH]c3cc4c(cc3c2=O)OCO4)c1 ?
miR-21 reporter: 0.0%; IL-2 act: 0.2; TCR act: 2.7%; PINK1 expr mod: 9.9%; RXFP1 agonist: 21.1%; RXFP1 antag: -70.9*

What do the screens show for `COc1cccc(N2CCN(C(=O)CCCCCn3c(=S)[nH]c4cc5c(cc4c3=O)OCO5)CC2)c1`?
miR-21 reporter: -0.6%; IL-2 act: -3.3; TCR act: -1.1%; PINK1 expr mod: 5.3%; RXFP1 agonist: inconclusive; RXFP1 antag: inconclusive

Results for Cc1cnc(-n2ncc(C(=O)N[C@H]3CCCCNC3=O)c2C2CC2)nc1-c1cccs1 ?
PINK1 expr mod: 1.0%

What do the screens show for `COc1ccc2c(c1)CCc1cnc(-n3ncc(C(=O)N(C)CC4CCCN(C)C4)c3C)nc1-2` (stereo not given)?
PINK1 expr mod: -0.8%

Results for C=CCNC(=O)/C(C#N)=C/c1cc(Br)ccc1OC ?
miR-21 reporter: 7.3%; IL-2 act: -0.6; TCR act: -1.3%; PINK1 expr mod: 1.2%; RXFP1 agonist: 2.2%; RXFP1 antag: -67.7*

Results for C=CCNC(=O)/C(C#N)=C/c1ccccc1Cl ?
miR-21 reporter: 0.1%; IL-2 act: -1.5; TCR act: 4.3%; PINK1 expr mod: -1.1%; RXFP1 agonist: 0.8%; RXFP1 antag: -3.4

What do the screens show for `CCC(=O)C1=C(N2CCCC2)CC(C)(C)CC1=O`?
miR-21 reporter: 1.5%; IL-2 act: 0.3; TCR act: 2.1%; PINK1 expr mod: 1.8%; RXFP1 agonist: 2.5%; RXFP1 antag: 2.7
